Assay results taken from ChEMBL document CHEMBL3734654, “Mutational mapping of the transmembrane binding site of the G-protein coupled receptor TGR5 and binding mode prediction of TGR5 agonists” (Eur J Med Chem, 2015).
Changes are numbered by the printed parent chain. Blank lines part the entries; values can stand above or below the compound they belong to. Active and inactive are the calls of the source. The calls are words filed in the database; no cut-off is given here.

What was measured:
Type in all cases: functional, cell-based
[1] = tested on: T1, G-protein coupled bile acid receptor 1 (Homo sapiens), Q8TDU6 [E169A]; experiment: Agonist activity at human TGR5 E169A mutant expressed in HEK293 cells assessed as rise in intracellular cAMP level at 0.1 to 2.5 uM incubated for 16 hrs by luciferase reporter gene assay
T1 sequence (whole entry): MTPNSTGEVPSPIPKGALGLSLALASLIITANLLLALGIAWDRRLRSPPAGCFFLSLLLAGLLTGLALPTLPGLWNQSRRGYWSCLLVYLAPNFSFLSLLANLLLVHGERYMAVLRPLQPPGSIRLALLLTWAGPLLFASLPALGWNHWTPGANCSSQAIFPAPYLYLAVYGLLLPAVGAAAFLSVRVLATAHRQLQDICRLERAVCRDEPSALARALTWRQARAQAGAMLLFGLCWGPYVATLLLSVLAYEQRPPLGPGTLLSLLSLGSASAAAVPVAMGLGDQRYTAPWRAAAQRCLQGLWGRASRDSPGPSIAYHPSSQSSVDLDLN

[2] = tested on: T2, G-protein coupled bile acid receptor 1 (Homo sapiens), Q8TDU6 [S21A]; experiment: Agonist activity at human TGR5 S21A mutant expressed in HEK293 cells assessed as rise in intracellular cAMP level at 10 uM incubated for 16 hrs by luciferase reporter gene assay relative to wildtype
T2 sequence (whole entry): T1 sequence (whole entry) with S21A, A169E

[3] = tested on: T3, G-protein coupled bile acid receptor 1 (Homo sapiens), Q8TDU6 [L244A]; experiment: Agonist activity at human TGR5 L244A mutant expressed in HEK293 cells assessed as rise in intracellular cAMP level at 10 uM incubated for 16 hrs by luciferase reporter gene assay relative to wildtype
T3 sequence (whole entry): T1 sequence (whole entry) with A169E, L244A

[4] = tested on: T4, G-protein coupled bile acid receptor 1 (Homo sapiens), Q8TDU6 [R79A]; experiment: Agonist activity at human TGR5 R79A mutant expressed in HEK293 cells assessed as rise in intracellular cAMP level at 10 uM incubated for 16 hrs by luciferase reporter gene assay relative to wildtype
T4 sequence (whole entry): T1 sequence (whole entry) with R79A, A169E

[5] = tested on: T5, G-protein coupled bile acid receptor 1 (Homo sapiens), Q8TDU6 [Y89A]; experiment: Agonist activity at human TGR5 Y89A mutant expressed in HEK293 cells assessed as rise in intracellular cAMP level at 10 uM incubated for 16 hrs by luciferase reporter gene assay relative to wildtype
T5 sequence (whole entry): T1 sequence (whole entry) with Y89A, A169E

[6] = tested on: T6, G-protein coupled bile acid receptor 1 (Homo sapiens), Q8TDU6 [N93A]; experiment: Agonist activity at human TGR5 N93A mutant expressed in HEK293 cells assessed as rise in intracellular cAMP level at 10 uM incubated for 16 hrs by luciferase reporter gene assay relative to wildtype
T6 sequence (whole entry): T1 sequence (whole entry) with N93A, A169E

[7] = tested on: T7, G-protein coupled bile acid receptor 1 (Homo sapiens), Q8TDU6 [Y240F]; experiment: Agonist activity at human TGR5 Y240F mutant expressed in HEK293 cells assessed as rise in intracellular cAMP level at 10 uM incubated for 16 hrs by luciferase reporter gene assay relative to wildtype
T7 sequence (whole entry): T1 sequence (whole entry) with A169E, Y240F

[8] = tested on: T8, G-protein coupled bile acid receptor 1 (Homo sapiens), Q8TDU6 [S270A]; experiment: Agonist activity at human TGR5 S270A mutant expressed in HEK293 cells assessed as rise in intracellular cAMP level at 10 uM incubated for 16 hrs by luciferase reporter gene assay relative to wildtype
T8 sequence (whole entry): T1 sequence (whole entry) with A169E, S270A

[9] = tested on: T3, G-protein coupled bile acid receptor 1 (Homo sapiens), Q8TDU6 [L244A]; experiment: Agonist activity at human TGR5 L244A mutant expressed in HEK293 cells assessed as rise in intracellular cAMP level incubated for 16 hrs by luciferase reporter gene assay
[10] = tested on: T3, G-protein coupled bile acid receptor 1 (Homo sapiens), Q8TDU6 [L244A]; experiment: Agonist activity at human TGR5 L244A mutant expressed in HEK293 cells assessed as reduction in forskolin-induced intracellular cAMP level incubated for 16 hrs by luciferase reporter gene assay
[11] = tested on: T9, G-protein coupled bile acid receptor 1 (Homo sapiens), Q8TDU6 [Y240A]; experiment: Agonist activity at human TGR5 Y240A mutant expressed in HEK293 cells assessed as reduction in forskolin-induced intracellular cAMP level incubated for 16 hrs by luciferase reporter gene assay
T9 sequence (whole entry): T1 sequence (whole entry) with A169E, Y240A

[12] = tested on: T6, G-protein coupled bile acid receptor 1 (Homo sapiens), Q8TDU6 [N93A]; experiment: Agonist activity at human TGR5 N93A mutant expressed in HEK293 cells assessed as reduction in forskolin-induced intracellular cAMP level at 0.1 to 10 uM incubated for 16 hrs by luciferase reporter gene assay
[13] = tested on: T8, G-protein coupled bile acid receptor 1 (Homo sapiens), Q8TDU6 [S270A]; experiment: Agonist activity at human TGR5 S270A mutant expressed in HEK293 cells assessed as rise in intracellular cAMP level incubated for 16 hrs by luciferase reporter gene assay
[14] = tested on: T4, G-protein coupled bile acid receptor 1 (Homo sapiens), Q8TDU6 [R79A]; experiment: Agonist activity at human TGR5 R79A mutant expressed in HEK293 cells assessed as rise in intracellular cAMP level incubated for 16 hrs by luciferase reporter gene assay
[15] = tested on: T7, G-protein coupled bile acid receptor 1 (Homo sapiens), Q8TDU6 [Y240F]; experiment: Agonist activity at human TGR5 Y240F mutant expressed in HEK293 cells assessed as reduction in forskolin-induced intracellular cAMP level incubated for 16 hrs by luciferase reporter gene assay
[16] = tested on: T5, G-protein coupled bile acid receptor 1 (Homo sapiens), Q8TDU6 [Y89A]; experiment: Agonist activity at human TGR5 Y89A mutant expressed in HEK293 cells assessed as rise in intracellular cAMP level at 50 uM incubated for 16 hrs by luciferase reporter gene assay relative to wildtype
[17] = tested on: T5, G-protein coupled bile acid receptor 1 (Homo sapiens), Q8TDU6 [Y89A]; experiment: Agonist activity at human TGR5 Y89A mutant expressed in HEK293 cells assessed as rise in intracellular cAMP level at 100 uM incubated for 16 hrs by luciferase reporter gene assay relative to wildtype

- Activity [1]: inactive
- Activity [2]: 104%
- Activity [3]: 57%
- Activity [4]: 65%
- Activity [5]: 117%
- Activity [6]: 12%
- Activity [7]: 17%
- Activity [8]: 81%
- Activity [9]: Dose-dependent effect
- Activity [10]: Active
- Activity [11]: Active
- Activity [12]: inactive
- Activity [13]: Dose-dependent effect
- Activity [14]: Dose-dependent effect
- Activity [15]: Active
SMILES: C[C@H](CCC(=O)NCCS(=O)(=O)O)[C@H]1CC[C@H]2[C@@H]3CC[C@@H]4C[C@H](O)CC[C@]4(C)[C@H]3C[C@H](O)[C@]12C

- Activity [16]: 92%
SMILES: C[C@H](CCC(=O)NCCS(=O)(=O)O)[C@H]1CC[C@H]2[C@@H]3[C@H](O)C[C@@H]4C[C@H](O)CC[C@]4(C)[C@H]3CC[C@]12C

- Activity [17]: 39%
SMILES: C[C@H](CCC(=O)NCCS(=O)(=O)O)[C@H]1CC[C@H]2[C@@H]3[C@@H](O)C[C@@H]4C[C@H](O)CC[C@]4(C)[C@H]3CC[C@]12C
